Results published in patent US7759392B2, “Pharmaceutical compounds” (Nicox S.A., priority 1999, dated 2010).

System: gastrointestinal mucosa
Settings: rat, in vivo

NCCCC(O)(P(=O)(O)O)P(=O)(O)O [Alendronate, sodic alendronate]
Gastro-enteropathy (% incidence) without NEM: 0% | gastrointestinal damages / gastric lesions in rats treated with NEM + drug (in words): showed gastric lesions
